pIC50: −log10 of the molar value.
Target: T1, Dimer of Gag-Pol polyprotein [489-587] (Human immunodeficiency virus 1, UniProt P12497)
T1 construct: 489-587
Assay: Protease Inhibition Assay
Conditions: pH 5.5; 30 °C
Method: Sensitivity of HIV-1 protease activity to protease inhibitors was determined by a peptide substrate cleavage assay. Protease products were analyzed on a reverse-phase high-pressure liquid chromatograph.

CC(C)(C)NC(=O)C1C[C@@H]2CCCC[C@@H]2CN1C[C@@H](O)[C@H](Cc1ccccc1)NC(=O)O[C@@H]1CCOC1 (stereo partly drawn) [(3R)-oxolan-3-yl N-[(2S,3R)-4-[(4aS,8aS)-3-(tert-butylcarbamoyl)-decahydroisoquinolin-2-yl]-3-hydroxy-1-phenylbutan-2-yl]carbamate]
pIC50: 6.16
